According to patent publication US20250120989A1, “BRIDGED TRICYCLIC CARBAMOYLPYRIDONE COMPOUNDS AND USES THEREOF” (priority 2023, published 2025):
Where two headings read alike, the source gives them in different places.

Assays:
[1] = male, beagle, dog, in vivo, po, 300 mg
in vivo [2] = conditions: male, beagle, dog, po
in vivo [3] = conditions: male, beagle, dog, plasma, iv, AUCINF, 30-minute infusion, dosed compound measured in plasma
[4] = 1 mg/kg, dog IV 1.0 mg/kg, Group 1/Group 2

| Compound | % F [1] [%] | AUCINF [1] [µM·h] | Cmax [1] [µM] | AUC(0-inf) (in vivo [2]; 4 mg/kg) [µM·h] | Cmax (in vivo [2]; 4 mg/kg) [µM] | bioavailability (in vivo [2]; 4 mg/kg) [%] | bioavailability (in vivo [2]; 175 mg) [%] | AUC(0-inf) (in vivo [3]; [4]) [µM·h] | AUC(0-inf) (in vivo [3]; 0.5 mg/kg, dog IV 0.5 mg/kg, Group 3) [µM·h] | AUC(0-inf) (in vivo [3]; 1 mg/kg, dog IV 1.0 mg/kg, Group 4) [µM·h] |
| --- | --- | --- | --- | --- | --- | --- | --- | --- | --- | --- |
| COC1=NO[C@@]2(CC[C@H](C)N3C[C@H]2n2cc(C(=O)NCc4ccc(F)cc4F)c(=O)c(OCOC(=O)OCCOP(=O)(O)O)c2C3=O)C1 [Compound 3, (((3′S,5S,7′R)-10′-((2,4-difluorobenzyl)carbamoyl)-3-methoxy-3′-methyl-1′,11′-dioxo-1′,4′,5′,11′-tetrahydro-3′H,4H,7′H-spiro[isoxazole-5,6′-[2,7]methanopyrido[1,2-a][1,4]diazonin]-12′-yl)oxy)methyl (2-(phosphonooxy)ethyl) carbonate] | 12.9 ± 3.4 | 1860 ± 470 | 74.7 ± 21.4 | – | – | – | – | – | – | – |
| CC1=NO[C@@]2(CC[C@H](C)N3C[C@H]2n2cc(C(=O)NCc4ccc(F)cc4F)c(=O)c(O)c2C3=O)C1 [Intermediate B, (3′S,5S,7′R)—N-(2,4-difluorobenzyl)-12′-hydroxy-3,3′-dimethyl-1′,11′-dioxo-1′,4′,5′,11′-tetrahydro-3′H,4H,7′H-spiro[isoxazole-5,6′-[2,7]methanopyrido[1,2-a][1,4]diazonine]-10′-carboxamide] | – | – | – | 1940 ± 435 | 39.6 ± 3.8 | 35.3 ± 10 | 9.2 | 1400 ± 226 | – | – |
| COC1=NO[C@@]2(CC[C@H](C)N3C[C@H]2n2cc(C(=O)NCc4ccc(F)cc4F)c(=O)c(O)c2C3=O)C1 [Intermediate C, (3′S,5S,7′R)—N-(2,4-difluorobenzyl)-12′-hydroxy-3-methoxy-3′-methyl-1′,11′-dioxo-1′,4′,5′,11′-tetrahydro-3′H,4H,7′H-spiro[isoxazole-5,6′-[2,7]methanopyrido[1,2-a][1,4]diazonine]-10′-carboxamide] | – | – | – | 1040 ± 177 | 28.5 ± 2 | 36.4 ± 1.6 | 2.9 | 707 ± 98 | 250 ± 42 | 722 ± 98 |
